Molecular target: E. coli DNA sliding clamp β (E. coli) (UniProt P0A988)
Experiment: co-localization single-molecule spectroscopy (CoSMoS, TIRF); τ clamp loader complex carrying three Pol IIIcore (30 nM Pol IIIcore) with clamp on surface-held DNA; the row of Table 1 has 30 nM Pol IV as well

Amino acid sequences for entries named in this document (tags omitted). A change or cut given only in a name is not applied to a line headed by its entry.
UniProt P0A988: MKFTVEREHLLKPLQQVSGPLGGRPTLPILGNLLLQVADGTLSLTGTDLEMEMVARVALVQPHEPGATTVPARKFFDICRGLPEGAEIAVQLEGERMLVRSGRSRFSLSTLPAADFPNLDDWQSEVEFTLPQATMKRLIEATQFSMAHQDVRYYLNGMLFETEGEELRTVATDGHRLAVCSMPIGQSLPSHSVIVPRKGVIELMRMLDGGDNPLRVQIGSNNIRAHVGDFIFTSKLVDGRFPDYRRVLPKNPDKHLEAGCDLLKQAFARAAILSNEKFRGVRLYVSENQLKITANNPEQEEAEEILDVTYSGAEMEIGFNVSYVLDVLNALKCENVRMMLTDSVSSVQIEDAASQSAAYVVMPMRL

## τ-complex: τ clamp loader (τ3δ1δ'1) with three Pol IIIcore complexes (α, ε, θ), P06710 1-643; P28630 1-343; P28631 1-334; P10443 1-1160; P03007 1-243; P0ABS8 1-76
  lifetime on clamp-DNA: 14.8 s

Reference: article PMC5731819
